Measurements from paper PMC9814838, “The orphan nuclear receptor Nurr1 is responsive to non-steroidal anti-inflammatory drugs” (Communications Chemistry, 2020).

Amino acid sequences for entries named in this document (tags omitted). Residues count along the entry.
UniProt P43354, 364-598: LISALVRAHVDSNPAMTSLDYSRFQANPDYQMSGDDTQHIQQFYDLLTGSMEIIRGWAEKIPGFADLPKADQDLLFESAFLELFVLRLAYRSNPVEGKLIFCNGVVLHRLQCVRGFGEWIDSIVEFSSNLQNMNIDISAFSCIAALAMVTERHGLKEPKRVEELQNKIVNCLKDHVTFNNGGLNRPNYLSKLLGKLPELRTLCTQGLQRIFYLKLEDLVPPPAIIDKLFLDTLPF

Assays:
Nurr1 LBD / PRIPRAP250 = Nurr1 LBD / PRIPRAP250 (Homo sapiens, UniProt P43354); test: Co-regulator recruitment HTRF, PRIPRAP250 peptide
Nurr1 LBD / SMRT ID2 = Nurr1 LBD / SMRT ID2 (Homo sapiens, UniProt P43354); test: Co-regulator recruitment HTRF, SMRT ID2 peptide
Nurr1 LBD / RIP140L6 = Nurr1 LBD / RIP140L6 (Homo sapiens, UniProt P43354); test: Co-regulator recruitment HTRF, RIP140L6 peptide
Nurr1 LBD / NCoR ID1 = Nurr1 LBD / NCoR ID1 (Homo sapiens, UniProt P43354); test: Co-regulator recruitment HTRF, NCoR ID1 peptide

## CCN(CC)CCCC(C)Nc1ccnc2cc(Cl)ccc12 (stereo not drawn) [CQ, chloroquine]
Nurr1 LBD / PRIPRAP250
  EC50: > 100 µM
Nurr1 LBD / SMRT ID2
  EC50: > 100 µM
Nurr1 LBD / RIP140L6
  EC50: 61 µM
Nurr1 LBD / NCoR ID1
  EC50: > 100 µM

## Cc1ccc(Cl)c(Nc2ccccc2C(=O)O)c1Cl [MFA, Meclofenamic acid]
Nurr1 LBD / PRIPRAP250
  IC50: 17 µM
Nurr1 LBD / SMRT ID2
  IC50: 26 µM
Nurr1 LBD / RIP140L6
  IC50: 33 µM
Nurr1 LBD / NCoR ID1
  IC50: 34 µM

## CCC(=O)NS(=O)(=O)c1ccc(-c2c(-c3ccccc3)noc2C)cc1 [parecoxib]
Nurr1 LBD / PRIPRAP250; […]
  PRIPRAP250 recruitment, activity in words: Inactive
Nurr1 LBD / SMRT ID2
  IC50: 51 µM
Nurr1 LBD / RIP140L6; […]
  RIP140L6 recruitment, activity in words: Inactive
Nurr1 LBD / NCoR ID1
  IC50: 89 µM
